Test results taken from patent publication US3965109A, “Certain aryl amino pyridines” (priority 1971, dated 1976).

Key:
Assay type in all cases: in vivo
[1] = tested on: Musca domestica (houseflies); experiment: Pest toxicity test, contact test; settings: 0.1% by weight; milk/sugar; 2 days; flies sprayed directly
[2] = tested on: Pieris brassicae (cabbage white caterpillars); experiment: Pest toxicity test; settings: 0.1% by weight, 2 days
[3] = tested on: Tetranychus telarius (red spider mites, eggs); experiment: Pest toxicity test; settings: 0.1% by weight; French bean; 3 days
[4] = tested on: Aphis fabae; experiment: Pest toxicity test; settings: 0.1% by weight; broad bean; 2 days
[5] = tested on: Aedes aegypti (mosquito adults); experiment: Pest toxicity test; settings: 0.01% by weight; plywood; 1 day
[6] = tested on: Megoura viceae; experiment: Pest toxicity test; settings: 0.1% by weight; broad bean; 2 days
[7] = tested on: Aedes aegypti (mosquito larvae); experiment: Pest toxicity test; settings: 0.01% by weight; water; 1 day
[8] = tested on: Meloidogyne incognita (nematodes); experiment: Pest toxicity test; settings: 0.01% by weight; water; 1 day
[9] = tested on: Plutella maculipennis (diamond back moth larvae); experiment: Pest toxicity test; settings: 0.1% by weight; mustard/paper; 2 days
[10] = tested on: Phaedon cochleariae (mustard beetles); experiment: Pest toxicity test; settings: 0.1% by weight; mustard/paper; 2 days
[11] = tested on: Tetranychus telarius (red spider mites, adults); experiment: Pest toxicity test; settings: 0.1% by weight; French bean; 3 days

SMILES: O=[N+]([O-])c1cc([N+](=O)[O-])c(Nc2c(Cl)c(F)nc(F)c2Cl)c([N+](=O)[O-])c1
- Mortality grading (kill), contact test [1]: 0 (O represents less than 30% kill)
- Mortality grading (kill) [2]: 0 (O represents less than 30% kill)
- Mortality grading (kill) [3]: 3 (3 represents over 90% kill)
- Mortality grading (kill) [4]: 3 (3 represents over 90% kill)
- Mortality grading (kill) [5]: 0 (O represents less than 30% kill)
- Mortality grading (kill) [6]: 3 (3 represents over 90% kill)
- Mortality grading (kill) [7]: 0 (O represents less than 30% kill)
- Mortality grading (kill) [8]: 2 (2 represents 60 - 90% kill)
- Mortality grading (kill) [9]: 0 (O represents less than 30% kill)
- Mortality grading (kill) [10]: 0 (O represents less than 30% kill)
- Mortality grading (kill) [11]: 3 (3 represents over 90% kill)
